Measurements taken from patent US10155027B2, “Alpha-galactosidase A and 1-deoxygalactonojirimycin co-formulation for the treatment of fabry disease” (Amicus Therapeutics, Inc., priority 2012, dated 2018).
Where a name gives a salt, the structure may show the parent alone.

Assay: Human observed oral migalastat exposures following a single oral dose of 1250 mg
Settings: in vivo

**Q.** Which AUC (Maximum observed individual AUC, single oral dose 1250 mg) does the source give for `OC[C@H]1NC[C@H](O)[C@@H](O)[C@H]1O` [migalastat HCl, (2R,3S,4R,5S)-2-(hydroxymethyl) piperdine-3,4,5-triol] here?
**A.** 116000 ng·h/mL

**Q.** And the Cmax (Maximum observed individual Cmax, single oral dose 1250 mg)?
**A.** 21900 ng/mL

**Q.** And the AUC (Median observed individual AUC, single oral dose 1250 mg)?
**A.** 73200 ng·h/mL

**Q.** What about the Cmax (Median observed individual Cmax, single oral dose 1250 mg) of the same molecule?
**A.** 13000 ng/mL

**Q.** And the AUC (Minimum observed individual AUC, single oral dose 1250 mg)?
**A.** 28900 ng·h/mL

**Q.** And the Cmax (Minimum observed individual Cmax, single oral dose 1250 mg)?
**A.** 4780 ng/mL

**Q.** And the AUC (maximum exposure (AUC), oral administration of 1250 mg)?
**A.** 116000 ng·h/mL
